Data published in ChEMBL document CHEMBL3885861, “Open TG-GATES”.

Assays:
[1] = species: Rattus norvegicus; experiment: Open TG-GATES - Regimen: Single; format: toxicity, organism-based, Sprague-Dawley; set-up: regimen Single, gender Male, age 6 weeks; conditions: in vivo; for MCH / Plat / Hb / MCHC: tissue Blood
[2] = species: Rattus norvegicus; experiment: Open TG-GATES - Regimen: Daily Repeat; format: toxicity, organism-based, Sprague-Dawley; set-up: regimen Daily Repeat, gender Male, age 6 weeks; conditions: in vivo; for LIVER: tissue Liver
[3] = po, 0 mg/kg, 3 h, route gavage, dose level Control
[4] = po, 30 mg/kg, […], tissue Blood, route gavage, dose level Middle, time 7 day
[5] = po, 30 mg/kg, […], tissue Blood, route gavage, dose level Middle, time 28 day
[6] = po, 100 mg/kg, 3 h, tissue Plasma, route gavage, dose level High
[7] = iv, 0 mg/kg, 6 h, route intravenous injection, dose level Control
[8] = iv, 30 mg/kg, 3 h, route intravenous injection, dose level Middle
[9] = iv, 30 mg/kg, 6 h, tissue Plasma, route intravenous injection, dose level Middle
[10] = iv, 10 mg/kg, […], tissue Plasma, route intravenous injection, dose level High, time 7 day

CS(=O)(=O)Nc1ccc([N+](=O)[O-])cc1Oc1ccccc1 [NIMESULIDE]
MCH [1, 3]: 22 pg | MCH ([1]; po, 0 mg/kg, 6 h, route gavage, dose level Control): 22 pg | MCH ([1]; po, 0 mg/kg, 9 h, route gavage, dose level Control): 21.8 pg | MCH ([1]; po, 0 mg/kg, 24 h, route gavage, dose level Control): 22.2 pg | MCH ([1]; po, 30 mg/kg, 6 h, route gavage, dose level Low): 22.2 pg | MCH ([1]; po, 30 mg/kg, 9 h, route gavage, dose level Low): 22.2 pg | MCH ([1]; po, 100 mg/kg, 3 h, route gavage, dose level Middle): 22.6 pg | MCH ([1]; po, 100 mg/kg, 6 h, route gavage, dose level Middle): 22 pg | MCH ([1]; po, 100 mg/kg, 9 h, route gavage, dose level Middle): 21.9 pg | MCH ([1]; po, 100 mg/kg, 24 h, route gavage, dose level Middle): 21.6 pg | MCH ([1]; po, 300 mg/kg, 3 h, route gavage, dose level High): 22.3 pg | MCH ([1]; po, 300 mg/kg, 6 h, route gavage, dose level High): 21.4 pg | MCH ([1]; po, 300 mg/kg, 9 h, route gavage, dose level High): 21.9 pg | MCH ([1]; po, 300 mg/kg, 24 h, route gavage, dose level High): 21.4 pg | MCH ([2]; po, 0 mg/kg, […], tissue Blood, route gavage, dose level Control, time 7 day): 22.1 pg | MCH ([2]; po, 0 mg/kg, […], tissue Blood, route gavage, dose level Control, time 28 day): 19.9 pg | MCH ([2]; po, 10 mg/kg, 72 h, tissue Blood, route gavage, dose level Low, time 3 day): 21.5 pg | MCH ([2]; po, 10 mg/kg, […], tissue Blood, route gavage, dose level Low, time 7 day): 21.1 pg | MCH ([2]; po, 10 mg/kg, […], tissue Blood, route gavage, dose level Low, time 14 day): 21.5 pg | MCH ([2]; po, 10 mg/kg, […], tissue Blood, route gavage, dose level Low, time 28 day): 19.5 pg | MCH ([2]; po, 30 mg/kg, 72 h, tissue Blood, route gavage, dose level Middle, time 3 day): 21.5 pg | MCH [2, 4]: 21.4 pg | MCH ([2]; po, 30 mg/kg, […], tissue Blood, route gavage, dose level Middle, time 14 day): 21.2 pg | MCH [2, 5]: 19.8 pg | MCH ([2]; po, 100 mg/kg, 72 h, tissue Blood, route gavage, dose level High, time 3 day): 21.8 pg | MCH ([2]; po, 100 mg/kg, […], tissue Blood, route gavage, dose level High, time 7 day): 21.2 pg | MCH ([2]; po, 100 mg/kg, […], tissue Blood, route gavage, dose level High, time 14 day): 22.6 pg | MCH ([2]; po, 100 mg/kg, […], tissue Blood, route gavage, dose level High, time 28 day): 20 pg

CSc1ccc2c(c1)N(CCC1CCCCN1C)c1ccccc1S2 (configuration not stated) [THIORIDAZINE]
Plat [1, 3]: 104.6 x10_4/uL | Cl ([1]; po, 0 mg/kg, 3 h, tissue Plasma, route gavage, dose level Control): 104.4 meq/L | Cl ([1]; po, 0 mg/kg, 6 h, tissue Plasma, route gavage, dose level Control): 104.2 meq/L | Cl ([1]; po, 0 mg/kg, 9 h, tissue Plasma, route gavage, dose level Control): 105.4 meq/L | Cl ([1]; po, 0 mg/kg, 24 h, tissue Plasma, route gavage, dose level Control): 105.2 meq/L | LIVER ([1]; po, 10 mg/kg, 6 h, tissue Liver, route gavage, dose level Low): 10.4 g | Cl ([1]; po, 10 mg/kg, 6 h, tissue Plasma, route gavage, dose level Low): 106.2 meq/L | Cl ([1]; po, 10 mg/kg, 9 h, tissue Plasma, route gavage, dose level Low): 105.4 meq/L | Plat ([1]; po, 10 mg/kg, 24 h, route gavage, dose level Low): 103 x10_4/uL | Cl ([1]; po, 10 mg/kg, 24 h, tissue Plasma, route gavage, dose level Low): 104.6 meq/L | Cl ([1]; po, 30 mg/kg, 3 h, tissue Plasma, route gavage, dose level Middle): 105.2 meq/L | Plat ([1]; po, 30 mg/kg, 6 h, route gavage, dose level Middle): 103.6 x10_4/uL | Cl ([1]; po, 30 mg/kg, 6 h, tissue Plasma, route gavage, dose level Middle): 107 meq/L | Cl ([1]; po, 30 mg/kg, 9 h, tissue Plasma, route gavage, dose level Middle): 106.8 meq/L | Cl ([1]; po, 30 mg/kg, 24 h, tissue Plasma, route gavage, dose level Middle): 104.4 meq/L | Plat ([1]; po, 100 mg/kg, 3 h, route gavage, dose level High): 103.1 x10_4/uL | Cl [1, 6]: 107 meq/L | IP [1, 6]: 10.4 mg/dL | Cl ([1]; po, 100 mg/kg, 6 h, tissue Plasma, route gavage, dose level High): 108.4 meq/L | Cl ([1]; po, 100 mg/kg, 9 h, tissue Plasma, route gavage, dose level High): 107.2 meq/L | Cl ([1]; po, 100 mg/kg, 24 h, tissue Plasma, route gavage, dose level High): 104.4 meq/L | Cl ([2]; po, 0 mg/kg, 72 h, tissue Plasma, route gavage, dose level Control, time 3 day): 104.2 meq/L | Cl ([2]; po, 0 mg/kg, […], tissue Plasma, route gavage, dose level Control, time 7 day): 106.2 meq/L | Cl ([2]; po, 0 mg/kg, […], tissue Plasma, route gavage, dose level Control, time 14 day): 106.4 meq/L | Cl ([2]; po, 0 mg/kg, […], tissue Plasma, route gavage, dose level Control, time 28 day): 106.2 meq/L | Cl ([2]; po, 10 mg/kg, 72 h, tissue Plasma, route gavage, dose level Low, time 3 day): 104 meq/L | Cl ([2]; po, 10 mg/kg, […], tissue Plasma, route gavage, dose level Low, time 7 day): 105.8 meq/L | Cl ([2]; po, 10 mg/kg, […], tissue Plasma, route gavage, dose level Low, time 14 day): 106.8 meq/L | Cl ([2]; po, 10 mg/kg, […], tissue Plasma, route gavage, dose level Low, time 28 day): 106.4 meq/L | Cl ([2]; po, 30 mg/kg, 72 h, tissue Plasma, route gavage, dose level Middle, time 3 day): 103.2 meq/L | Plat [2, 4]: 104 x10_4/uL | Neu [2, 5]: 10.4% | Cl ([2]; po, 30 mg/kg, […], tissue Plasma, route gavage, dose level Middle, time 7 day): 105.6 meq/L | Cl ([2]; po, 30 mg/kg, […], tissue Plasma, route gavage, dose level Middle, time 14 day): 107.6 meq/L | Cl ([2]; po, 30 mg/kg, […], tissue Plasma, route gavage, dose level Middle, time 28 day): 105.8 meq/L | Cl ([2]; po, 100 mg/kg, 72 h, tissue Plasma, route gavage, dose level High, time 3 day): 103.2 meq/L | Cl ([2]; po, 100 mg/kg, […], tissue Plasma, route gavage, dose level High, time 7 day): 105.8 meq/L | Cl ([2]; po, 100 mg/kg, […], tissue Plasma, route gavage, dose level High, time 14 day): 107.6 meq/L | Cl ([2]; po, 100 mg/kg, […], tissue Plasma, route gavage, dose level High, time 28 day): 106 meq/L

CARBOPLATIN
Hb [1, 7]: 13.3 g/dL | MCHC [1, 7]: 32.3% | MCH ([1]; iv, 0 mg/kg, 9 h, route intravenous injection, dose level Control): 20.5 pg | Hb ([1]; iv, 10 mg/kg, 6 h, route intravenous injection, dose level Low): 13.3 g/dL | MCH ([1]; iv, 10 mg/kg, 24 h, route intravenous injection, dose level Low): 20.5 pg | MCH [1, 8]: 20.5 pg | MCHC [1, 8]: 32.3% | MCH ([1]; iv, 30 mg/kg, 6 h, route intravenous injection, dose level Middle): 20.5 pg | BUN [1, 9]: 10.2 mg/dL | LDH [1, 9]: 183.6 IU/L | Hb ([1]; iv, 100 mg/kg, 3 h, route intravenous injection, dose level High): 13.2 g/dL | Hb ([1]; iv, 100 mg/kg, 6 h, route intravenous injection, dose level High): 13.3 g/dL | Ca ([1]; iv, 100 mg/kg, 9 h, tissue Plasma, route intravenous injection, dose level High): 10.8 mg/dL | Ca ([1]; iv, 100 mg/kg, 24 h, tissue Plasma, route intravenous injection, dose level High): 10.8 mg/dL | MCH ([2]; iv, 0 mg/kg, 72 h, tissue Blood, route intravenous injection, dose level Control, time 3 day): 20.5 pg | MCHC ([2]; iv, 0 mg/kg, […], tissue Blood, route intravenous injection, dose level Control, time 28 day): 35.2% | Ca ([2]; iv, 0 mg/kg, […], tissue Plasma, route intravenous injection, dose level Control, time 7 day): 10.8 mg/dL | Ca ([2]; iv, 0 mg/kg, […], tissue Plasma, route intravenous injection, dose level Control, time 14 day): 10.8 mg/dL | GLC ([2]; iv, 0 mg/kg, […], tissue Plasma, route intravenous injection, dose level Control, time 28 day): 187.8 mg/dL | Hb ([2]; iv, 1 mg/kg, […], tissue Blood, route intravenous injection, dose level Low, time 7 day): 13.2 g/dL | LIVER ([2]; iv, 1 mg/kg, […], route intravenous injection, dose level Low, time 14 day): 12.4 g | Ca ([2]; iv, 1 mg/kg, […], tissue Plasma, route intravenous injection, dose level Low, time 14 day): 10.8 mg/dL | Ca ([2]; iv, 3 mg/kg, 72 h, tissue Plasma, route intravenous injection, dose level Middle, time 3 day): 10.8 mg/dL | Neu ([2]; iv, 3 mg/kg, […], tissue Blood, route intravenous injection, dose level Middle, time 28 day): 12.4% | MCH ([2]; iv, 10 mg/kg, 72 h, tissue Blood, route intravenous injection, dose level High, time 3 day): 20.5 pg | LDH ([2]; iv, 10 mg/kg, 72 h, tissue Plasma, route intravenous injection, dose level High, time 3 day): 192.2 IU/L | LIVER ([2]; iv, 10 mg/kg, […], route intravenous injection, dose level High, time 28 day): 11.1 g | Ca [2, 10]: 10.8 mg/dL | LDH [2, 10]: 192 IU/L | Ca ([2]; iv, 10 mg/kg, […], tissue Plasma, route intravenous injection, dose level High, time 14 day): 10.8 mg/dL
